This is a selection; strong and weak results do not stand in their true shares. Activity calls are given as the source filed them.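 Rule for the calls: active = GFP response relative to DMSO above a set limit, near the screen mean plus 3 SD (cut at about 150% in these data); inconclusive = Fewer than 70 cells measured for a yeast strain; inactive = the rest.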
Assay: modulators of CIT2-GFP expression in yeast, primary screen, S. cerevisiae, GFP fusion, multiplex flow cytometry, MLPCN library (AID 2029);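 note: ratio of well median GFP fluorescence to mean of DMSO wells on the plate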
Settings: S. cerevisiae CIT2-GFP strain, 3 h, at 10 µM, stronger effect = higher value, 100 means same as DMSO wells

SMILES	GFP response vs DMSO
CCCOc1ccc(C(=O)NCC2(N(C)C)CCCCC2)cc1OC	inactive: 88.2%
O=C(NCC1(N2CCCCC2)CCCCC1)c1cncc(Br)c1	inactive: 112%
CN1CCC(Nc2cccc(F)c2)CC1	inactive: 107%
COc1cc(OC)c(C(=O)NCC2(N(C)C)CCCCC2)cc1OC	inactive: 98.4%
O=C(NCC1(N2CCOCC2)CCCCC1)c1cc(F)c(F)cc1Cl	inactive: 93.3%
CC(C)c1ccc(NC2CCN(C(=O)OC(C)(C)C)CC2)cc1	inactive: 97.5%
COc1ccc(CN(CCCl)CCCl)cc1Cl	inactive: 92.6%
CN(C)c1cccc(C(=O)NCC2(N3CCCCC3)CCCCC2)c1	inactive: 106%
COc1cc(C(=O)NCC2(N3CCCCC3)CCCCC2)ccc1OC(F)F	inactive: 98.8%
O=C(NCC1(N2CCOCC2)CCCCC1)c1cc(=O)[nH]c2ccccc12	inactive: 93.4%
CN1CCN(CCOC(=O)C(O)(c2ccccc2)c2ccccc2)CC1	inactive: 102%
COc1ccc(NC2CCN(C(=O)OC(C)(C)C)CC2)cc1	inactive: 98.8%
O=C(NCC1(N2CCCCC2)CCCCC1)c1cccc(C(F)(F)F)c1	inactive: 108%
CCN1CCC(Nc2ccc(Cl)cc2)CC1	inactive: 102%
N#CC1(Nc2ccccc2)CCN(CCc2ccccc2)CC1	inactive: 114%
O=C(NCC1(N2CCCCC2)CCCCC1)c1cccc([N+](=O)[O-])c1	inactive: 112%
O=C(NCC1(N2CCCCC2)CCCCC1)c1ccc(OC(F)F)cc1	inactive: 104%
COc1cc(C(=O)NCC2(N(C)C)CCCCC2)ccc1OC(F)F	inactive: 84.8%
CCOC(=O)N1CCC(Nc2cccc(C)c2)CC1	inactive: 107%
Cc1ccc(OCC(C)C)c(CN(CCCl)CCCl)c1	inactive: 102%
O=C(NCC1(N2CCCCC2)CCCCC1)c1ccc(F)cc1	inactive: 97%
COc1ccc(NC2CCN(CCc3ccccc3)CC2)c(OC)c1	inactive: 107%

SMILES	GFP response vs DMSO
CCOC(=O)N1CCC(Nc2ccc(F)cc2)CC1	inactive: 102%
CCOc1ccc(C)cc1CN(CCCl)CCCl	inactive: 93.9%
O=C(OC1CN2CCC1CC2)C1c2ccccc2Oc2ccccc21 (stereo not given)	inactive: 102%
O=C(NCC1(N2CCCCC2)CCCCC1)c1ccc(Cl)s1	inactive: 89.9%
N#CC1(Nc2ccccc2)CCN(Cc2ccccc2)CC1	inactive: 105%
COc1ccc(Cl)cc1C(=O)NCC1(N2CCOCC2)CCCCC1	inactive: 95.9%
CCOC(=O)N1CCC(Nc2ccc(OC)cc2)CC1	inactive: 104%
O=C(NCC1(N2CCCCC2)CCCCC1)c1ccc(Cl)nc1	inactive: 99.3%
Cc1cc(C)cc(N(C(=O)c2ccccc2)C2CCN(C(=O)OC(C)(C)C)CC2)c1	inactive: 93.7%
O=C(NCC1(N2CCOCC2)CCCCC1)c1cc2ccccc2o1	inactive: 100%
CSc1ccccc1C(=O)NCC1(N2CCCCC2)CCCCC1	inactive: 94.4%
COc1ccc(C(=O)NCC2(N3CCCCC3)CCCCC2)cc1	inactive: 102%
COc1ccc(C(=O)NCC2(N3CCCCC3)CCCCC2)c(OC)c1OC	inactive: 89.7%
O=C(NCC1(N2CCCCC2)CCCCC1)c1ccc(=O)[nH]c1	inactive: 97.3%
O=C(NCC1(N2CCCCC2)CCCCC1)c1cccs1	inactive: 105%
CN1CCC(Nc2ccc(Cl)cc2)CC1	inactive: 103%
CCCOc1ccc(C)cc1CN(CCCl)CCCl	inactive: 92.7%
COc1cc(OC)cc(C(=O)NCC2(N3CCOCC3)CCCCC2)c1	inactive: 95.3%
COc1cccc(C(=O)N(c2cc(C)cc(C)c2)C2CCN(C(=O)OC(C)(C)C)CC2)c1	inactive: 96.9%
CCC(CO)(C(=O)OC1CN2CCC1CC2)c1ccccc1 (stereo not given)	inactive: 105%
CC(C)(C)OC(=O)N1CCC(Nc2ccccc2)CC1	inactive: 85.4%
O=C(O)C1(Nc2ccccc2)CCN(Cc2ccccc2)CC1	inactive: 108%

SMILES	GFP response vs DMSO
CCCOc1ccc(C(=O)NCC2(N(C)C)CCCCC2)cc1	inactive: 99.9%
CCOc1ncccc1C(=O)NCC1(N2CCOCC2)CCCCC1	inactive: 98.4%
CN1CCC(Nc2ccc(F)c(Cl)c2)CC1	inactive: 106%
O=C(NCC1(N2CCCCC2)CCCCC1)c1ccco1	inactive: 99.9%
CN(C)c1ccc(C(=O)NCC2(N3CCCCC3)CCCCC2)cc1	inactive: 101%
CCN1CCC(Nc2cccc(F)c2)CC1	inactive: 95.3%
Cc1ccc(C(=O)NCC2(N3CCCCC3)CCCCC2)o1	inactive: 101%
Fc1ccccc1NC1CCN(Cc2ccccc2)CC1	inactive: 98.1%
COc1cc(OC)cc(C(=O)NCC2(N3CCCCC3)CCCCC2)c1	inactive: 102%
CN(C)C1(CNC(=O)c2cccc(C#N)c2)CCCCC1	inactive: 109%
c1ccc(CN2CCC(Nc3ccccc3)CC2)cc1	inactive: 99.6%
CCCN1CCC(Nc2cc(OC)cc(OC)c2)CC1	inactive: 104%
N#Cc1ccc(C(=O)NCC2(N3CCCCC3)CCCCC2)cc1	inactive: 114%
CC(C)(C)OC(=O)N1CCC(N(C(=O)c2ccccc2)c2ccc(Cl)cc2)CC1	inactive: 105%
O=C(OC1CN2CCC1CC2)C1c2ccccc2C=Cc2ccccc21 (stereo not given)	inactive: 106%
CCc1cc(C(=O)NCC2(N3CCCCC3)CCCCC2)sc1C	inactive: 94.4%
CCOC(=O)N1CCC(Nc2ccc(C)cc2)CC1	inactive: 100%
N/C(=N\O)c1c(N)no[n+]1[O-]	inactive: 99.4%
COc1ccc(C(=O)NCC2(N3CCOCC3)CCCCC2)cc1OC	inactive: 95.1%
COc1cc(C(=O)NCC2(N3CCOCC3)CCCCC2)cc(OC)c1C	inactive: 103%
O=C(NCC1(N2CCOCC2)CCCCC1)c1cc(Br)ccc1Cl	inactive: 92.8%
